Literature values, collected in patent US20060100168A1, “Method of treating cancer using adenosine and its analogs” (The Trustee of Boston University, priority 2002, published 2006).

Chains of the proteins cited; added tags and fusions are not shown.
UniProt P0DMS8, whole entry: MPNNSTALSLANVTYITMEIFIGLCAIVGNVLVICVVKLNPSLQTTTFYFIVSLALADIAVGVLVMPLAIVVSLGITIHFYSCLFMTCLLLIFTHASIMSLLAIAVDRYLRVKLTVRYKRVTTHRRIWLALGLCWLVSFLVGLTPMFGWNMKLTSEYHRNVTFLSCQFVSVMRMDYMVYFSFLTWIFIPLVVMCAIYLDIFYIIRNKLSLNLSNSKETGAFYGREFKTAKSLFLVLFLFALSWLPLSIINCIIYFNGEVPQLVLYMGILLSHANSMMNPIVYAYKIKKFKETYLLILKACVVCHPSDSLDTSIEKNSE

Target: A3 adenosine receptor (Homo sapiens, UniProt P0DMS8)
Conditions: reported (ref. 34); cited from earlier work

Compound: CNC(=O)[C@H]1O[C@@H](n2cnc3c(NCc4cccc(I)c4)ncnc32)[C@H](O)[C@@H]1O [IB-MECA, N^6-(3-iodobenzyl)adenosine-5′-N-methyluronamide]
- Affinity for A3 adenosine receptor: nanomolar range
